Consider 19 molecules from patent US20220281918A1, “PBP BINDING BICYCLIC PEPTIDE LIGANDS” (BicycleTx Limited, priority 2019, published 2022).

In general, Kd refers to the equilibrium constant for the complex coming apart. As a reminder, the Ki is a dissociation constant, usually derived from enzyme kinetics or from competition with a known ligand.

In test [1] the target is T1, S. pneumoniae PBP1a (Streptococcus pneumoniae, UniProt Q8DR59).
T1 sequence (Q8DR59 1-719): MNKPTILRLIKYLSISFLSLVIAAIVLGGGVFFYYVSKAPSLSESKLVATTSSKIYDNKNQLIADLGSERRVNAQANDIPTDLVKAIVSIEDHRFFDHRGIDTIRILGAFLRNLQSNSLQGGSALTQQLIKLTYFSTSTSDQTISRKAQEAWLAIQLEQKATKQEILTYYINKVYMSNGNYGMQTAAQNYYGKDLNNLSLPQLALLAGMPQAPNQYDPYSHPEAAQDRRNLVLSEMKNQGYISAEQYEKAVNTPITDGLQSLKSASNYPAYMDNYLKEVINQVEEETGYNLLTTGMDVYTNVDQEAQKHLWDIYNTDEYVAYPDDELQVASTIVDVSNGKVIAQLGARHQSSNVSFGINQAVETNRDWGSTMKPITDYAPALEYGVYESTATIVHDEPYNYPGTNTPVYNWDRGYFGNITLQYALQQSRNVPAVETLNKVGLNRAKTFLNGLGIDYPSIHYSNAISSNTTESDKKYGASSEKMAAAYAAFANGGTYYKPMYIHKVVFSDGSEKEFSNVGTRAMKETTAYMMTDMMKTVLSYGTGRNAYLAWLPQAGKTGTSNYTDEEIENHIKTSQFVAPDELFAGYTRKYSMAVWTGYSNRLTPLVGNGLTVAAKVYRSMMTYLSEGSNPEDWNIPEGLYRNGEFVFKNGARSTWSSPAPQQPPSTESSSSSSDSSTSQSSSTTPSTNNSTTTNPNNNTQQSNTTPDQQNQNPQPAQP
The test can be described thus: Fluorescence polarisation direct binding assay, PBP 1a. To be noted: PBP Tested 1a; fluorescein-labelled peptide (Sar6-Lysine linker, C-terminus). The procedure:
Fluorescence polarisation was carried out using fluorescein-labelled peptides with unmodified PBP protein and measured using a PHERAstar FS by BMG Labtech fitted with a FP 485 520 520 optic module.
Fluorescent peptides at 10 mM in DMSO were diluted to 2.5 nM in binding buffer (10 mM HEPES, pH8, 300 mM NaCl, 2% glycerol). A two-fold dilution series of PBP protein was then prepared across 12 wells in binding buffer, with the highest concentration being 21 μM, and the lowest concentration being 17 nM.
10 μl diluted fluorescent peptide (2.5 nM) was added into 12 wells of a 384-Well NBS™ Low Volume Microplate (Fisher Scientific). 10 μl PBP dilution series was then added to the wells containing the fluorescent peptide, and 5 μl binding buffer was added to bring the total volume to 25 μl and the final concentration of peptide tracer to 1 nM. A control well lacking PBP protein was prepared with a final peptide concentration of 1 nM to a final volume of 25 μl in binding buffer. Fluorescence polarisation was measured every 5 minutes for a period of one hour at room temperature. The gain and focal height were optimised using the control well lacking protein. Wells were excited at 485 nm, and emission detection was set at 520 nm.
Data were analysed in GraphPad software to derive values for the dissociation constant. Experiments were repeated at least three times.
Certain peptide ligands of the invention (having a fluorescein appended to the C-terminus with a Sar6-Lysine linker) were tested in the above mentioned binding assay and the results are shown in Table 1 for binding to the indicated PBP: […]
In general terms: Fluorescence polarisation rises when a labelled molecule tumbles more slowly, as on binding a larger partner.

Test [2] addresses T2, E. coli PBP1b (E. coli, UniProt P02919 88-844, limits assumed).
T2 sequence (looked up): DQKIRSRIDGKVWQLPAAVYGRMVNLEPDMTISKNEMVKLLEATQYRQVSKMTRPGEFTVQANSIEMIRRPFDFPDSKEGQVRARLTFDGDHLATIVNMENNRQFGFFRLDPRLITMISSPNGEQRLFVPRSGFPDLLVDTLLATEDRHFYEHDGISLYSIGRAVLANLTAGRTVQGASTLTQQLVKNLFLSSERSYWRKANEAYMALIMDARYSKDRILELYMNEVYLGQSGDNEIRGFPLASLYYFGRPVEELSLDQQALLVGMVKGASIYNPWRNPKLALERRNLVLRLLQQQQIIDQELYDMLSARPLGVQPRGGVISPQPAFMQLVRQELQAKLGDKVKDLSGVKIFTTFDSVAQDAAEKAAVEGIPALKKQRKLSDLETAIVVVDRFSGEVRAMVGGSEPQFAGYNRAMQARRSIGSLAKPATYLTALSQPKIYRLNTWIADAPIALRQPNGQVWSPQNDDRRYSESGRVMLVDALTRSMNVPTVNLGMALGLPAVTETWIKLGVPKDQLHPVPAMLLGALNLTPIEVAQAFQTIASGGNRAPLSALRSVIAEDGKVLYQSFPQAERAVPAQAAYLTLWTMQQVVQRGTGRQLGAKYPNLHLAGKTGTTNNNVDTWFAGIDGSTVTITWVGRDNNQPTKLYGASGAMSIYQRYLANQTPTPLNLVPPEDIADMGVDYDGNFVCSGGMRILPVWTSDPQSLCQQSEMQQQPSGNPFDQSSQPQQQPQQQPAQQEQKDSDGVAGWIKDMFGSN
Nature of the test: fluorescence polarisation direct binding; fluorescein-labelled peptide, PBP titrated.

Test [3] deals with T3, S. pneumoniae PBP1a (S. pneumoniae, UniProt Q04707 37-719, limits assumed).
T3 sequence (looked up): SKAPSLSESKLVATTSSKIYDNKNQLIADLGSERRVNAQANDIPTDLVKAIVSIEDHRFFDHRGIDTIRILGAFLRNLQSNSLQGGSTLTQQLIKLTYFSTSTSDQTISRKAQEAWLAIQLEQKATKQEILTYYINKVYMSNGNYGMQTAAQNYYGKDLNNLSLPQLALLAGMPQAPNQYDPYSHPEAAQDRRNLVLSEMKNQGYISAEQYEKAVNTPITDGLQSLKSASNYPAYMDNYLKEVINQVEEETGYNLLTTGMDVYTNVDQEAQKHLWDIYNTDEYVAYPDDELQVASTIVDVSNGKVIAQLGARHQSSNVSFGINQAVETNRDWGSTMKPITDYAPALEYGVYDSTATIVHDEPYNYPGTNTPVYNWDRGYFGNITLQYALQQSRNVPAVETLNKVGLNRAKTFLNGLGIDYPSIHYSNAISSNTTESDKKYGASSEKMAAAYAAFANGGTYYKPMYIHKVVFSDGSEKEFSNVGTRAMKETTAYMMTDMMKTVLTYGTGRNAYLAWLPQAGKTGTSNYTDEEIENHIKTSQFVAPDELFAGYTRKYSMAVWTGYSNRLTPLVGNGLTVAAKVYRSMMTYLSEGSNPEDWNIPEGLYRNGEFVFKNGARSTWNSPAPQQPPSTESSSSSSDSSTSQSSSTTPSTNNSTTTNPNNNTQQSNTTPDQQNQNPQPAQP
The description is as above.

The target in test [4] is T3, S. pneumoniae PBP1a. Nature of the test: fluorescence polarisation competition; unlabelled peptide against the competitor fluorescein-labelled BCY9378 tracer, PBP at 800 nM.

The molecule A-(SEQ ID NO: 2)-A [BCY9378] gave a Kd in test [1] of 80 nM. With A-(SEQ ID NO: 12)-A [BCY9391], in test [1], the Kd is 450 nM. In turn, A-(SEQ ID NO: 8)-A [BCY9386] registered a Kd in test [1] of 870 nM.

In the case of A-(SEQ ID NO: 4)-A [BCY9382], the affinity in test [1], expressed as Kd, was 2370 nM. Still for that read-out and setting: under A-(SEQ ID NO: 3)-A [BCY9381] stands 3950 nM.

B1: BCY14631 with fluorescein appended to the C-terminus with a Sar6-Lysine linker (peptide)
peptide: ACWGTQKCPVGYWCA
modifications: Ci, Cii and Ciii cyclised with TATA scaffold; fluorescein appended to the C-terminus with a Sar6-Lysine linker
notes: Bicyclic peptide
B1: the affinity in test [2], expressed as Kd, was 62 nM.

B2: BCY9385 with fluorescein appended to the C-terminus with a Sar6-Lysine linker (peptide)
peptide: ACKPSLSCQHLPRALCA
modifications: Ci, Cii and Ciii cyclised with TATA scaffold; fluorescein appended to the C-terminus with a Sar6-Lysine linker
notes: Bicyclic peptide
B2: binding in test [3] was put at a Kd of 1020 nM.

B3: BCY9227 with fluorescein appended to the C-terminus with a Sar6-Lysine linker (peptide)
peptide: ACSNPTCVYTPTNLFCA
modifications: Ci, Cii and Ciii cyclised with TATA scaffold; fluorescein appended to the C-terminus with a Sar6-Lysine linker
notes: Bicyclic peptide
With B3, in test [2], the affinity, expressed as Kd, was 2150 nM.

B4: BCY9226 with fluorescein appended to the C-terminus with a Sar6-Lysine linker (peptide)
peptide: ACVYAPENLLCGSCA
modifications: Ci, Cii and Ciii cyclised with TATA scaffold; fluorescein appended to the C-terminus with a Sar6-Lysine linker
notes: Bicyclic peptide
As for B4, in test [2], the affinity, expressed as Kd, was 3750 nM.

B5: BCY9229 with fluorescein appended to the C-terminus with a Sar6-Lysine linker (peptide)
peptide: ACNTCIYASENLLCA
modifications: Ci, Cii and Ciii cyclised with TATA scaffold; fluorescein appended to the C-terminus with a Sar6-Lysine linker
notes: Bicyclic peptide
With B5, the Kd in test [2] amounted to 2240 nM. On to ACPVGCRPHYVHWSCA (Ci, Cii and Ciii cyclised with TATA scaffold, Bicyclic peptide) [BCY10027 (unlabelled, unmodified peptide)], for which the Ki in test [4] was determined as 110 nM. On the same count and under the same terms, with ACPYTSCPPYTHCA (Ci, Cii and Ciii cyclised with TATA scaffold, Bicyclic peptide) [BCY10025 (unlabelled, unmodified peptide)] the figure was 66.7 nM. On the same count and under the same terms, with ACPYTTCPPYHACA (Ci, Cii and Ciii cyclised with TATA scaffold, Bicyclic peptide) [BCY10024 (unlabelled, unmodified peptide)] the figure was 196 nM.

B6: BCY9382 with fluorescein appended to the C-terminus with a Sar6-Lysine linker (peptide)
peptide: ACYNHKWGAMCTHPCA
modifications: Ci, Cii and Ciii cyclised with TATA scaffold; fluorescein appended to the C-terminus with a Sar6-Lysine linker
notes: Bicyclic peptide
In test [3], B6 had a Kd of 2370 nM. Molecule ACPPVCRPHYVHWMCA (Ci, Cii and Ciii cyclised with TATA scaffold, Bicyclic peptide) [BCY10028 (unlabelled, unmodified peptide)] yielded a Ki in test [4] of 614 nM.

B7: BCY9386 with fluorescein appended to the C-terminus with a Sar6-Lysine linker (peptide)
peptide: ACPFTGPCRPHYICA
modifications: Ci, Cii and Ciii cyclised with TATA scaffold; fluorescein appended to the C-terminus with a Sar6-Lysine linker
notes: Bicyclic peptide
For B7, in test [3], binding was put at a Kd of 870 nM.

B8: BCY9388 with fluorescein appended to the C-terminus with a Sar6-Lysine linker (peptide)
peptide: ACDNCWERQWYACA
modifications: Ci, Cii and Ciii cyclised with TATA scaffold; fluorescein appended to the C-terminus with a Sar6-Lysine linker
notes: Bicyclic peptide
The molecule B8 gave a Kd in test [3] of 570 nM.

B9: BCY14613 with fluorescein appended to the C-terminus with a Sar6-Lysine linker (peptide)
peptide: ACWGSWRCPIVHSCA
modifications: Ci, Cii and Ciii cyclised with TATA scaffold; fluorescein appended to the C-terminus with a Sar6-Lysine linker
notes: Bicyclic peptide
In turn, B9 had a Kd in test [2] of 131 nM.

B10: BCY13797 with fluorescein appended to the C-terminus with a Sar6-Lysine linker (peptide)
peptide: ACWGSLRCPIVHSCA
modifications: Ci, Cii and Ciii cyclised with TATA scaffold; fluorescein appended to the C-terminus with a Sar6-Lysine linker
notes: Bicyclic peptide
Consider B10, for which the affinity in test [2], expressed as Kd, was 95 nM.
